Reference: paper PMC2901233 (Nuclear medicine and biology, 2010)

System: serotonin transporter
[1] = 1 mg/kg IV at 8 h post-radiotracer, n=2

CNCCC(Oc1ccccc1OC)c1ccccc1 (stereo not shown) [Nisoxetine, nisoxetine]
Percent Displacement in [123I]p ZIENT (BPND), Basal Ganglia [1]: 4%
Percent Displacement in [123I]p ZIENT (BPND), Brainstem [1]: 2%
Percent Displacement in [123I]p ZIENT (BPND), Diencephalon [1]: 5%
Percent Displacement in [123I]p ZIENT (BPND), Hippocampus [1]: 9%
Percent Displacement in [123I]p ZIENT (BPND), Temporal Cortex [1]: 8%
displacement (change) of [123I]p ZIENT in diencephalon and brainstem (1 mg/kg at 8 h post-radiotracer): < 10%
displacement of [123I]p ZIENT in all regions studied, in words (IV at 8 h post-radiotracer, fluoxetine 1.5, 2.5, citalopram 5, methylphenidate 0.5, nisoxetine 1 mg/kg): no significant changes
